## Antibody variant affinities, Ab-14 heavy chain, assay B

Target: peptide PDVDLGDISGINAS, taken from heptad repeat 2 (HR2) of SARS-CoV-2 spike.

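The parent was found by panning a naive human phage display library on the peptide. These sequences belong to a second round, designed from the earlier measurements on random variants of the parent. Several design methods are mixed in this list. The assay is AlphaSeq: two haploid yeast populations carry antibody and antigen on their surface. Pairs that bind mate more often; barcode pairs of the diploids are counted by sequencing. Read counts were normalised to the haploid input and turned into Kd by a linear fit to BCL2-family pairs of known affinity, for each replicate. There are six technical replicates.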

Ab-14 is the parent antibody, in scFv form: VH, then a 15-residue (Gly4Ser)3 linker, then VL. The light chain is unchanged in all variants.
VH: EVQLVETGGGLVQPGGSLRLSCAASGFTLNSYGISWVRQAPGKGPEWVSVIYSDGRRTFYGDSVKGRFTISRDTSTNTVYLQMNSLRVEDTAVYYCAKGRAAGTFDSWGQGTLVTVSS
VL: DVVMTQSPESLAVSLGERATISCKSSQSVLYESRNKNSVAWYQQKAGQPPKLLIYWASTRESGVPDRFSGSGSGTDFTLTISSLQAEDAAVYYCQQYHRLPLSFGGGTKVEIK

Each variant is given by its three heavy chain CDRs, as the data file delimits them; those of the parent are GFTLNSYGIS, VIYSDGRRTFYGDSVK, GRAAGTFDS.
Scale: log10 of Kd in nM, estimated from mating counts; low values are strong binders.
Averages over replicates are reported, and they cover detected replicates only.
"no signal" marks a missing value. The strain was present, yet no cells mated with the target were sequenced in any replicate, which points to weak or no binding.
In the paper, a design with two or fewer of six values counts as a poor binder.

CDR-H1,CDR-H2,CDR-H3,mean log10 Kd (nM),detected
GFDLNEYGIS,VIYADGSRQAYADSVK,GNVAGTFDV,-0.44,6/6
GFDLNEYGIS,VIYADGQRTAYSDSVK,GNQAGTFDL,-0.33,6/6
GATLNSYGIS,VIYSDGRRTFYIDSVK,GTGAGTFDN,no signal,0/6
GFSLNEYGIS,VIYSDGRRTFYGDSVK,GRQAGTFFS,0.64,5/6
GFDIEEYGIS,VIYADGRRKAYADSVK,GIDVYGKVM,no signal,0/6
GFDLNEYGIS,VIYADGSRTAYADSVK,GETAGTFDV,-0.20,6/6
GFTLNEYGIS,VIYSDGRRTFYGDSVK,GRASVTFDQ,1.30,3/6
GFDLNEYGIS,VIYADGMRTAYADSVK,GGQAGTFDV,-0.77,6/6
GFDLNEYGIS,VIYADGRRTFYSDSVK,GSEAGTFNM,0.17,6/6
GFELNAYGIS,VIYSDGRRTYYGDSVK,GRTAGTFDS,0.69,5/6
GFTRNSYGIS,VIYSDGQRTIYGDSVK,GRAAGTFVS,no signal,0/6
GFTLNSYGIS,VIYSDGRRTFYGDSVK,GHVAGTFDS,1.34,6/6
GFTLNSYGIS,VIYADGRRTFYGGSVK,GRWAGTFDS,2.45,2/6
GFWLNDYGIS,VIYSDGRRTMYGDSVK,GRAAGTFDS,no signal,0/6
GRDLDEYGIS,VIYADGTRKMYAPNFK,GEHGGTFLM,no signal,0/6
GFDLNEYGIS,VIYADGRRTMYVDSVK,GEAAGTFDQ,no signal,0/6
GFDLNEYGIS,VIYADGKRTAYSDSVK,GETAGTFDI,1.18,2/6
GFDIEEYGIS,VIYADGIRQAYKDKVK,GWDVGTFSV,no signal,0/6
GTTLNSYGIS,VIYSDGRRTFYGDSVK,GRAAGTFDI,2.08,1/6
GFTLNSYGIS,VIYSDGRRTFYSDRVK,GQEAGTFDS,0.67,5/6
GFDLNEYGIS,VIYADGQRTAYSDSVK,GEVAGTFDT,-0.43,6/6
GFDLNEYGIS,VIYADGRRTAYIDSVK,GQAAGTFDV,-0.07,6/6
GFHLNSYGIS,VIYSDGRRTFYGDSVK,GRKHGTFDS,2.85,2/6
GFTLNDYGIS,VIYSDGRRTFYGNSVK,GSAAGTFDG,2.60,5/6
GDTLNSYGIS,VIYSDGRRTFYRDSVK,VRCAGFFDS,no signal,0/6
GFTLNDYGIS,VIYSDGRRTFYGDSVK,GRAAGTFES,2.06,11/12
GFDLNSYGIS,VIYSDGRRTFYGDNVK,GKTAGTFDS,0.30,6/6
GFDLNSYGIS,VIYSDGRRTFYIDQVK,GRTAGTFDS,0.68,6/6
GFTLESYGIS,VIYSDGRRTFYHDSVK,GKAAGTFDS,0.76,6/6
GFTLNSYGIS,VIYSDGRRTFYQDSVK,GQAAGTFDK,1.24,4/6
GFTLNSYGIS,VIYSDGRRTFYGDSVK,GQVAGTFDA,1.70,6/6
GFTLNSYGIS,VIYSDGRRTFYSDSVK,GRVMGTFDS,3.32,1/6
GFDLNEYGIS,VIYADGRRTFYTDSVK,GEIAGTFDQ,0.04,6/6
GFDLNSYGIS,VIYSDGKRTFYGDSVK,GQAAGTFDS,0.43,6/6
MFSLNSYGIS,VIYSDGRRTFYGDSVK,GQTAGTFDS,no signal,0/6
GFTLNSYGIS,VIYSDQRRTFYVDSVK,GRAAGTFDS,no signal,0/6
GFDLNEYGIS,VIYADGLRTFYTDSVK,GEIAGTFDS,-0.52,6/6
GFTLNEYGIS,VIYSDGRRTFKTDSVK,GRFAGTFDS,no signal,0/6
GFTLNSYGIS,VIYSDGMRTFYGDSVK,GRQAGTFDV,no signal,0/6
GFTLNSYGIS,VIYSDGQRTFYSDSVK,GEAAGTFDS,0.63,6/6
GYTLNEYGIS,VIYSDGRRTFYSDSVK,GRAAGTFDS,1.75,6/6
GFDLTEYGIS,VIYADGRRTEYSDDVK,GQTAGHFLD,1.70,1/6
GPSLQEYGIS,VIYADGMRTAYTDSVK,GLFGATFLD,no signal,0/6
GFSLNEYGIS,VIYSDGRRTFYKDSVK,GTAAGTFDS,0.67,6/6
GFTLNSYGIS,VIYSDGRRTFYDDSVK,GEAAGTFDS,-0.10,1/6
GFDLNSYGIS,VIYSDGRRTFYHDSVK,GRAAVTFDS,no signal,0/6
GFNLNSYGIS,VIYADGRRTFYGDSVK,GRQAGTFDS,0.16,6/6
GFDLNSYGIS,VIYSDGRRTYYGDSVK,GRTAGTFDS,0.19,6/6

A selection of 5 entries from above:

CDR-H1,CDR-H2,CDR-H3,mean log10 Kd (nM),detected
GFSLNEYGIS,VIYSDGRRTFYKDSVK,GTAAGTFDS,0.67,6/6
GFDLNSYGIS,VIYSDGRRTFYHDSVK,GRAAVTFDS,no signal,0/6
GFTLNSYGIS,VIYSDGRRTFYGDSVK,GQVAGTFDA,1.70,6/6
GYTLNEYGIS,VIYSDGRRTFYSDSVK,GRAAGTFDS,1.75,6/6
GFDLNEYGIS,VIYADGSRTAYADSVK,GETAGTFDV,-0.20,6/6

A sequence that the file lists under several names has all its replicates pooled.
Background: pairings of all heavy chain designs with three empty control strains gave a value in 1% of cases (median 2.08, 5th percentile 0.84). Values in that range, when seen in few replicates, are hard to tell from nonspecific mating.
Of ten entries with the parent sequence, four were seen in most replicates (averages 0.34 to 2.37), three in one and three in none, so single entries are noisy.
A sequence measured in both rounds can read differently, since the two assays cover different ranges.

Values reported by Li et al. 2023, doi:10.1038/s41467-023-39022-2 (FLAb copy).